# Laboratory results from US7439251B2, “Methods and compositions for treatment of central and peripheral nervous system disorders and novel compounds useful therefor” (Israel Institute for Biological Research, priority 2002, dated 2008).
# Test system: rat pheochromocytoma cells transfected with the M1 mAChR
# Assay: MTT cell viability against β-amyloid and H2O2 in M1 mAChR transfected cells
# Conditions: β-A25-35 10 & 20 μM
substance,measurement,value
"(S)-Ethyl-4-(3-1H-indol-3-yl-propionyl)-8-methyl-1-thia-4,8-diaza-spiro[4.5]decan-3-one",β-A25-35-induced cytotoxicity,more effective than carbachol and AF267B
